Experimental findings from US5159081A, “Intermediates of peripherally selective N-carbonyl-3,4,4-trisubstituted piperidine opioid antagonists” (Eli Lilly and Company, priority 1991, dated 1992) are described below.

Amino acid sequences for entries named in this document (tags omitted).
UniProt P33535, whole entry, looked up: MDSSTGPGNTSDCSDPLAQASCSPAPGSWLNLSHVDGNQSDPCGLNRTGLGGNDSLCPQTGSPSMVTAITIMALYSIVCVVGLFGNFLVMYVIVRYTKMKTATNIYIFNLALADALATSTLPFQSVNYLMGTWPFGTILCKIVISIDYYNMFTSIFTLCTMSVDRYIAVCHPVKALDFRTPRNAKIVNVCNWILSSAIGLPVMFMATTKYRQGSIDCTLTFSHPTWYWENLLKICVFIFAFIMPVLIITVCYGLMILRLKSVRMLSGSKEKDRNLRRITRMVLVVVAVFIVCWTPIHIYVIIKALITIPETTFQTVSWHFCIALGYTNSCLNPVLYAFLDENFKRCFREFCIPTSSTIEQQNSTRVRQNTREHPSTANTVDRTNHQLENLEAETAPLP
UniProt P42866, whole entry, looked up: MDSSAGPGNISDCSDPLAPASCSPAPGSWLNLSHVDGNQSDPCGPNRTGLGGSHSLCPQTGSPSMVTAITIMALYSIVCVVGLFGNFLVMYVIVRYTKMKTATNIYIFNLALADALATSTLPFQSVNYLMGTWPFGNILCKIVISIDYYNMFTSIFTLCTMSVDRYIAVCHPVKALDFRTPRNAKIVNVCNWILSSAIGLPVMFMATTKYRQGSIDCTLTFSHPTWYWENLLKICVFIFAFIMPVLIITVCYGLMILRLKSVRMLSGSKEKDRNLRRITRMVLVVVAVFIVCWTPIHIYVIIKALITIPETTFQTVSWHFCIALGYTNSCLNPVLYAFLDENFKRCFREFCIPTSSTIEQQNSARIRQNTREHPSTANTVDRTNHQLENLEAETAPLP

As usually defined, the Ki is the dissociation constant of the complex between target and ligand, obtained from inhibition or displacement. A word on the ED50: it is the midpoint of the dose-response relation. A low value points to an effect at a small dose.

In one test the target is mu receptor (Rattus norvegicus, UniProt P33535). The test is described as follows: Naloxone [3H] opioid receptor binding assay (mu receptor). More on the design: species or system rat (male Sprague Dawley). The settings on record: [3H]naloxone 0.5 nM, 20 min.
For test [1], the target named is peripheral opioid receptors (Mus musculus, UniProt P42866). The test is described as follows: mouse diarrhea test: precipitated diarrhea in morphine-maintained mice (peripheral opioid activity). In kind it is in vivo. The settings on record: subcutaneous or oral, 30 min observation.

With `C[C@H]1CN(CCN(C(=O)CCCC(=O)O)c2ccccc2)CC[C@@]1(C)c1cccc(O)c1` (relative stereo) [Example 20, Trans-5-(phenyl-(2-(4-(3-hydroxyphenyl)-3,4-dimethyl-1-piperidinyl)ethyl)amino)-5-oxopentanoic acid monohydrate], the inhibition constant Ki at mu receptor (rat whole brain minus cerebellum, pH 7.4, 37° C.) came out at 0.74 nM.
As for `CC(C)C[C@H](NC(=O)CCC(=O)N(CCN1CCC(C)(c2cccc(O)c2)C(C)C1)c1ccccc1)C(=O)O.Cl.O` (stereo partly shown), the ED50 in test [1] stood at 0.05 mg/kg. Further, the “% displacement at 10 nM” value on mu receptor (10 nM test compound) stood at 100%. In addition, the “% displacement at 100 nM” value on mu receptor (100 nM test compound) is listed as 99%.
